System: porcine skin

With FITC-Dextran the “FITC-Dextran in the dermis” value was “almost zero”.
